Literature values, collected in patent US20090317456A1, “USE OF ONCOLYTIC VIRUSES AND ANTIANGIOGENIC AGENTS IN THE TREATMENT OF CANCER” (priority 2006, published 2009).

Protein sequences, listed by entry. Tags and fused reporters are not part of them. Residues count along the entry.
UniProt P10721, 26-976: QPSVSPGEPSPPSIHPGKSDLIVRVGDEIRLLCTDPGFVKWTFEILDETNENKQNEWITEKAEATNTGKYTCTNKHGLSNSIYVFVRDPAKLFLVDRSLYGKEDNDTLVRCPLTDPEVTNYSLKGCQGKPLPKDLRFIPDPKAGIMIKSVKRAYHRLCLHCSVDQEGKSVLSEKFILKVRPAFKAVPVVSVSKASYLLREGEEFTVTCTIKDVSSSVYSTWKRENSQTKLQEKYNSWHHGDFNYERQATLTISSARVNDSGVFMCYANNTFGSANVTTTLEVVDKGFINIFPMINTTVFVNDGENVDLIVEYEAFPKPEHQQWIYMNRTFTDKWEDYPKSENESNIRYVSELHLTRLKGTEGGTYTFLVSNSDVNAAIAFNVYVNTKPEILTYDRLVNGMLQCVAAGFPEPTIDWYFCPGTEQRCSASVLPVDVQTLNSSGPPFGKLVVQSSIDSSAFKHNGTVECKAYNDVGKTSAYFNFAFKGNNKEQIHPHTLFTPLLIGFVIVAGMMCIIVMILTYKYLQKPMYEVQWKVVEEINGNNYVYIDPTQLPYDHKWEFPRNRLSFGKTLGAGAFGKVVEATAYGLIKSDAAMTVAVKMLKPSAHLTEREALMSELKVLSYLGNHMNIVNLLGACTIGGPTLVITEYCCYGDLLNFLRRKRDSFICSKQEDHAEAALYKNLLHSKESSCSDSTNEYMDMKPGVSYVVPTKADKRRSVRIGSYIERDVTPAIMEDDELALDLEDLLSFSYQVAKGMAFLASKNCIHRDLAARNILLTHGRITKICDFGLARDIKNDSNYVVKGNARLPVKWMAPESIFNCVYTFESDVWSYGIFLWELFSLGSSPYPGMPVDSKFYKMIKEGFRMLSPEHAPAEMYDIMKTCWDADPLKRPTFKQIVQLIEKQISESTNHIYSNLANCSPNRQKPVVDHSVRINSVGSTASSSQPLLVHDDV

Biological target: c-kit (Homo sapiens, UniProt P10721)

For Clc1ccc(Nc2nnc(Cc3ccncc3)c3ccccc23)cc1 [PTK 787/ZK 222584], the inhibition of c-kit is given as “nanomolar range”.
